Where two headings read alike, the source gives them in different places.
Biological target: human α7 nicotinic acetylcholine receptor (HEK cell line stably expressing human RIC-3 and human α7) (Homo sapiens, UniProt P36544)
Experiment: Automated patch-clamp electrophysiology functional assay (Assay A), IonFlux HT, whole-cell population patch
[1] = read-out: α7 nAChR EC50, automated patch-clamp electrophysiology functional assay (Assay A)
[2] = read-out: α7 nAChR Potency, HEK cells expressing human α7/RIC-3, test compound with or without 40 μM acetylcholine, holding potential −60 mV, room temperature

By UniProt entry, the sequences of proteins in these tests, tags left out. Residues count along the entry.
UniProt P36544, 23-502 limits assumed: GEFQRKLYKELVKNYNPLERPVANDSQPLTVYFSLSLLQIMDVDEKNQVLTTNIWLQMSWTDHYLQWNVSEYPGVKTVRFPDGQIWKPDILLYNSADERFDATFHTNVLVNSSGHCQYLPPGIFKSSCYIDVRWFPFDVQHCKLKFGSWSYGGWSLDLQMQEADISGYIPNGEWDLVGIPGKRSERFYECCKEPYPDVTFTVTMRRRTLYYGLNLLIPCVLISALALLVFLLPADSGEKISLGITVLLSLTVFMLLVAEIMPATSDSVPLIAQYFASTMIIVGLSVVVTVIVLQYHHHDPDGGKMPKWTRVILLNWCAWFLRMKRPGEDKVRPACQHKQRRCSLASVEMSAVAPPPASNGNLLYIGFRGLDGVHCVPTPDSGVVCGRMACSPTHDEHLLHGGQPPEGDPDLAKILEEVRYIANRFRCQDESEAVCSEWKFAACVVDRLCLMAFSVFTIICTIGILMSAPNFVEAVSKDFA

| SMILES | EC50 [1] | EC50 [2] |
| --- | --- | --- |
| NS(=O)(=O)N1CCC2(CC1)C[C@H]2c1nc(-c2cccc(OC(F)F)c2)no1 | 760 nM | 500 to 5000 nM |
| COc1ccc(Cl)cc1-c1nc([C@@H]2CC23CCN(S(N)(=O)=O)CC3)no1 | 59 nM | < 100 nM |
| CC(C)(O)c1ccc(-c2noc([C@@H]3C(F)(F)C34CCN(S(N)(=O)=O)CC4)n2)cc1 | 1200 nM | 500 to 5000 nM |
| NS(=O)(=O)N1CCC2(C(F)C1)C(c1nc(-c3conc3C3CC3)no1)C2(F)F (stereo not shown) | 160 nM | 100 to 500 nM |
| NS(=O)(=O)N1CCC2(CC1)[C@H](c1nc(-c3ccc(F)cc3C(F)(F)F)no1)C2(F)F | 190 nM | 100 to 500 nM |
| NS(=O)(=O)N1CCC2(CC1)[C@H](c1nc(-c3ccc(F)cc3F)no1)C2(F)F | 170 nM | 100 to 500 nM |
| NS(=O)(=O)N1CCC2(CC1)C[C@H]2c1noc(-c2ccc(C(F)(F)F)cc2)n1 | 960 nM | 500 to 5000 nM |
| NS(=O)(=O)N1CCC2(CC1)[C@H](c1nc(-c3cccc(F)c3)no1)C2(F)F | 140 nM | 100 to 500 nM |
